These results are taken from PubChem BioAssay AID624291 (National Center for Advancing Translational Sciences (NCATS), 2012).

Molecules are shown by their SMILES. This is a selection; strong and weak results do not stand in their true shares. Some of these compounds have results that are not shown, active ones among them. Records with an inconclusive call do not appear. The source made the active and inactive calls. Calls follow the shape of the dose curve; as a rule, active = well fitted activation curve with a large enough effect; inconclusive = small, poorly fitted or top-dose-only effect; inactive = no such curve, though single readings can be large or run the other way.

The assay in a line: qHTS for Activators of Integrin-Mediated Alleviation for Muscular Dystrophy.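 Also: 100% = response of the positive control SU9516; nearly all actives have a fitted effect of over 60% in size.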 Conditions: alpha7betagal myoblasts, beta-gal FDG fluorescence, 48 h; at 38.3 µM (top of the series).
As to `O=C(NCC1(N2CCCCC2)CCCCC1)c1cc([N+](=O)[O-])ccc1Cl`, the activation is inactive: -66.7%.

With `CN1[C@@H]2CC[C@H]1CC(OC(=O)C(O)(c1ccccc1)c1ccccc1)C2` (some centres undefined), the activation is inactive: -34.6%.

Turning to `COc1cc(SC)ccc1C(=O)NCC1(N(C)C)CCCCC1`, the activation is inactive: 0%.

`CCN(CC)CC(C)C(C)OC(=O)C(O)(c1ccccc1)c1ccccc1` (centres undefined): the activation was inactive: -8.12%.

On to `CC(C)N1C(=O)CC2(CCN(CCOC(=O)C(O)(c3ccccc3)c3ccccc3)CC2)C1=O`, for which the activation is inactive: -13%.

Take `Cc1ccc(C(=O)NCC2(N3CCCCC3)CCCCC2)cc1`: the activation was inactive: -1.81%.

Turning to `CN(C)c1ccc(C(=O)NCC2(N(C)C)CCCCC2)cc1`, the activation is inactive: 0.0692%.

Regarding `CN(C)C1CCCC1OC(=O)C(O)(c1ccccc1)c1ccccc1` (centres undefined), the activation was inactive: 5.56%.

For the molecule `Cc1ccccc1C(=O)NCC1(N2CCCCC2)CCCCC1`, the activation was inactive: -17.5%.

In the case of `O=C(NCC1(N2CCCCC2)CCCCC1)c1cc(F)c(F)cc1Cl`, the activation is inactive: 0%.

For `C=CCN1CCN(CCOC(=O)C(O)(c2ccccc2)c2ccccc2)CC1`, the activation is inactive: 2.67%.

As to `COc1ccc(C(=O)NCC2(N(C)C)CCCCC2)cc1`, the activation was inactive: 17.7%.

With `O=C(NCC1(N2CCCCC2)CCCCC1)c1cccc(Br)c1`, the activation is inactive: -58.9%.

In the case of `CCN1CCCC(OC(=O)C2(O)c3ccccc3C=Cc3ccccc32)C1` (centres undefined), the activation was inactive: 1.52%.

Take `Cc1cc(C(=O)NCC2(N3CCCCC3)CCCCC2)ccc1[N+](=O)[O-]`: the activation was inactive: 3.15%.

Take `COc1ccc(Cl)cc1C(=O)NCC1(N(C)C)CCCCC1`: the activation was inactive: 0%.

For the molecule `COc1cccc(C(=O)NCC2(N3CCCCC3)CCCCC2)c1`, the activation is inactive: -6.41%.

On to `O=C(NCC1(N2CCCCC2)CCCCC1)c1cccc(Cl)c1`, for which the activation is inactive: -18.9%.

With `O=C(OC1CN2CCC1CC2)C(CO)(c1ccccc1)c1ccccc1` (centres undefined), the activation was inactive: 4.76%.

Consider `C=C(C)C#CC(O)(C(=O)OC1CCN(C)CC1)c1ccccc1` (centres undefined), for which the activation is inactive: -12.2%.

Consider `COc1ccc(Br)c(C(=O)NCC2(N3CCCCC3)CCCCC2)c1`, for which the activation is inactive: 21.4%.

Regarding `O=C(OCCN1CCCC1)C(O)(c1ccccc1)c1ccccc1`, the activation was inactive: -35.4%.

Regarding `CC(C)Oc1ccc(C(=O)NCC2(N(C)C)CCCCC2)cc1`, the activation is inactive: 2.71%.

Consider `CN(C)c1cccc(C(=O)NCC2(N(C)C)CCCCC2)c1`, for which the activation was inactive: -27.1%.
